Values quoted from earlier work as cited in PMC10776879, “In vitro screening of topical formulation excipients for epithelial toxicity in cancerous and non-cancerous cell lines” (EXCLI Journal, 2023).

Conditions: Table 1, physicochemical information of the excipients, source not given; cited from earlier work

Propylene glycol dicaprylocaprate [Labrafac®]
HLB: 1
